Results as given in patent US20050084916A1, “Identification of the IkappaBNS protein and its products” (priority 2001, published 2005).

Test system: DP thymocytes
Test: Antisense oligonucleotide blockade of VSV8-induced negative selection in FTOC (FACS)
Conditions: then VSV8 for 4 h; for percentage of DP thymocytes: oligonucleotide 200 μg/ml for 12-19 h, VSV8 alone 22%, control 57%; for effect on the antigen-induced loss of thymocytes: oligonucleotide 200 μg/ml, absolute cell numbers

Substance | percentage of DP thymocytes [%] | effect on the antigen-induced loss of thymocytes
5′AGAGTCCTCCATCACCAGGGG3′ | 52 | almost completely blocks
5′CCCCTGGTGATGGAGGACTCT3′ | 21 | no effect
